# Data published in patent publication US11351170B2, “Substituted pyrimidines as CDK4/6 inhibitors” (priority 2017, dated 2022).
# Protein sequences, listed by entry. Tags and fused reporters are not part of them. Lines headed by an entry give the natural chain unless they say otherwise; changes in a name come on top.
# UniProt Q00534, whole entry: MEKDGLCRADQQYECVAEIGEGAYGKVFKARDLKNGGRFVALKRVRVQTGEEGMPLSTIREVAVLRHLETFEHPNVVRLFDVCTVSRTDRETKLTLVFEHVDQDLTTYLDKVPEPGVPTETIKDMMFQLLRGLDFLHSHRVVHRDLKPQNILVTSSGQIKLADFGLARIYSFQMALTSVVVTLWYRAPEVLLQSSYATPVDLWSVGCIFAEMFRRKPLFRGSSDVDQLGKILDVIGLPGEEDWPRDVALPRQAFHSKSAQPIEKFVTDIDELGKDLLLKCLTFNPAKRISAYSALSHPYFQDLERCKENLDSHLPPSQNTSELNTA
# UniProt P11802: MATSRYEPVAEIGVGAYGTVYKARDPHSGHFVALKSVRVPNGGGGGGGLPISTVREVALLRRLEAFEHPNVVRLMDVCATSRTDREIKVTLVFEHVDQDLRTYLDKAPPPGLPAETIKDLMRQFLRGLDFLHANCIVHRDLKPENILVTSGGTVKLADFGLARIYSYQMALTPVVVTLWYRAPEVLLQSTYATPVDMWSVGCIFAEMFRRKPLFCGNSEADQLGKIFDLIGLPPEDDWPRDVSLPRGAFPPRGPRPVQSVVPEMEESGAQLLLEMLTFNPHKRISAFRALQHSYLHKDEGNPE
# Tests used:
# CDK6 = CDK6 (Homo sapiens (Human), UniProt Q00534); assay: CDK6 Inhibition Assay; type: biochemical
# CDK4 = CDK4 (Homo sapiens (Human), UniProt P11802); assay: CDK4 Inhibition Assay; type: biochemical
smiles,measurement,setting,value
"CCN1CCC(COc2ccc(Nc3ncc(F)c(-c4cc(F)c5nc6n(c5c4)C(C)(C)CC6)n3)nc2)CC1 [Example 8, N-(5-((1-ethylpiperidin-4-yl)methoxy)pyridin-2-yl)-5-fluoro-4-(5-fluoro-1,1-dimethyl-2,3-dihydro-1H-benzo[d]pyrrolo[1,2-a]imidazol-7-yl)pyrimidin-2-amine]",IC50,CDK6,4.72 nM
same,IC50,CDK4,0.16 nM
